Literature values, collected in paper PMC3810412 (Bioorganic & medicinal chemistry letters, 2013).

Amino acid sequences for entries named in this document (tags omitted). A change or cut given only in a name is not applied to a line headed by its entry.
UniProt P97266, whole entry, looked up: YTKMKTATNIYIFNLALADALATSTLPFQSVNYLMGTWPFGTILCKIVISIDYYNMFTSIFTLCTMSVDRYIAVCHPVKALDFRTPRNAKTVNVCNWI
UniProt P32300, whole entry: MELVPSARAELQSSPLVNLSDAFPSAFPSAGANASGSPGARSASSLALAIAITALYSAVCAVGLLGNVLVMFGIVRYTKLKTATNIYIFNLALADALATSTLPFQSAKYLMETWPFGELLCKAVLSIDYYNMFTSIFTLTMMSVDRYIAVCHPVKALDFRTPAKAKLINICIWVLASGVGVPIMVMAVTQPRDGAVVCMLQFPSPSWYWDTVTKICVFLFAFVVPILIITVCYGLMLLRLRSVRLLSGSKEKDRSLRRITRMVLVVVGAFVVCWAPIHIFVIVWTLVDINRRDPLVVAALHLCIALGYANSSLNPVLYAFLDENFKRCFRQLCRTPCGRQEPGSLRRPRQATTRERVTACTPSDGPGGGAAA

Columns and labels:
GPI (μ) = GPI (μ) (Cavia porcellus, UniProt P97266); conditions: read-out: GPI (μ) opioid agonist IC50; cited from earlier work
MVD (δ) = MVD (δ) (Mus musculus, UniProt P32300); conditions: read-out: MVD (δ) opioid agonist IC50; cited from earlier work

Biphalin [reference compound]
IC50 (GPI (μ)): 8.8 nM
IC50 (MVD (δ)): 2.7 nM
